Source: US20170198196A1, “METHODS FOR CONTROLLING SOURING IN ENGINEERED SYSTEMS” (The Regents of the University of California, priority 2014, published 2017)

Assays:
[1] = cited from earlier work
[2] = system: Desulfovibrio alaskensis G20; conditions: read-out: IC50 of sulfate reduction; defined media, sulfate 30 mM
[3] = system: Desulfovibrio alaskensis G20; conditions: sulfite reducing G20, 36 h
[4] = system: Desulfovibrio alaskensis G20 tn5::rex mutant; assay: Inhibition of Desulfovibrio alaskensis G20 tn5::rex mutant versus wild-type; conditions: tn5::rex overproduces central sulfate reduction pathway
[5] = system: Desulfovibrio alaskensis G20; assay: Growth inhibition of Desulfovibrio alaskensis G20 on lactate/sulfate media (OD600)
[6] = system: sulfidogenic, mixed-species microbial communities; assay: Inhibition of sulfate reduction in continuous sediment bioreactors by MFP dosing
[7] = system: marine enrichment cultures
[8] = system: Azospira suillum PS; assay: Growth of Azospira suillum PS with nitrate or perchlorate as electron acceptor in presence of MFP; conditions: read-out: IC50 against growth of A. suillum PS
[9] = cited from earlier work; remark: listed apart in the source
[10] = system: marine enrichment cultures; assay: Inhibition of sulfide production (Cline assay) in marine enrichment cultures; format: cell-based
[11] = system: Desulfovibrio alaskensis G20 tn5::dde_2102; assay: Growth of tn5::dde_2102 (crcB, fluoride efflux pump) mutant with MFP or fluoride; conditions: 30 mM F^- or 1 mM MFP

**Q.** Which solubility constant [1] does the source give for calcium monofluorophosphate here?
**A.** The solubility constant was 30 mM.

**Q.** With monofluorophosphate as the substance, how does the IC50 [2] read?
**A.** Its IC50 is 100 µM.

**Q.** What about the “potency against sulfite grown cells relative to sulfate grown cells, in words” value [3] of the same substance?
**A.** Its value is “less inhibitory to sulfite grown cells than sulfate grown cells”.

**Q.** And the “response of Rex mutants relative to wild-type G20, in words” value [4]?
**A.** The value was “sensitive”.

**Q.** And the “concentration inhibiting growth of Desulfovibrio alaskensis G20” value ([5]; FIG. 3A and 3B)?
**A.** The value was “below 1 mM”.

**Q.** What about the IC50 ([5]; read-out: IC50 against growth of Desulfovibrio alaskensis G20 (95% confidence interval), wild-type, 48 h) of the same substance?
**A.** The IC50 was 1200 µM.

**Q.** And the IC50 ([5]; read-out: IC50 against growth of Desulfovibrio alaskensis G20, lactate and sulfate media)?
**A.** Its IC50 is 1220 µM.

**Q.** And the “inhibition of sulfate reduction in bioreactors” value ([6]; MFP dosing at 2 mM, second dosing period)?
**A.** Its value is “did not result in inhibition of sulfate reduction”.

**Q.** What about the “inhibition of sulfate reduction in bioreactors” value ([6]; MFP dosing at 20 mM, third dosing period, R7-9) of the same substance?
**A.** The value was “rapid inhibition of sulfate reduction”.

**Q.** What about the IC50 ([7]; read-out: IC50 Seawater Growth, seawater adjusted to contain 2 g L^-1 yeast extract) of the same substance?
**A.** The IC50 was 55600 µM.

**Q.** What about the IC50 ([7]; read-out: growth IC50, marine enrichment cultures, 48 h) of the same substance?
**A.** The IC50 was > 100000 µM.

**Q.** What about the IC50 ([8]; nitrate-reducing conditions) of the same substance?
**A.** The IC50 was > 50000 µM.

**Q.** And the IC50 ([8]; perchlorate-reducing conditions)?
**A.** Its IC50 is > 50000 µM.

**Q.** What about the stability ([9]; extremes of alkaline and acidic pH) of the same substance?
**A.** Its stability is “unstable”.

**Q.** What about the stability ([9]; neutral pH) of the same substance?
**A.** The stability was “stable for months”.

**Q.** What about the “fold higher concentration needed for impact on general growth of the microbial community” value ([10]; growth versus sulfide production, marine enrichment) of the same substance?
**A.** Its value is 70 fold.

**Q.** What about the selectivity index (SI = growth IC50/sulfide IC50) ([10]; marine enrichment cultures, 48 h) of the same substance?
**A.** The selectivity index (SI = growth IC50/sulfide IC50) was 53.

**Q.** What about the “selectivity and potency as inhibitor of sulfidogenesis versus growth, in words” value ([10]; marine enrichment cultures, SI>2 classified as selective) of the same substance?
**A.** The value was “selective inhibitors”.

**Q.** What about the “Growth/Sulfide Ratio” value ([10]; ratio of seawater growth IC50 to sulfide production IC50) of the same substance?
**A.** Its value is 66.52.

**Q.** What about the IC50 ([10]; read-out: IC50 Seawater Sulfide Production, seawater adjusted to contain 2 g L^-1 yeast extract) of the same substance?
**A.** Its IC50 is 836 µM.

**Q.** What about the IC50 ([10]; read-out: IC50 against sulfidogenesis (95% confidence interval), marine enrichment cultures, 48 h) of the same substance?
**A.** The IC50 was 1900 µM.

**Q.** What about the IC50 ([10]; read-out: IC50 value against undefined sulfidogenic microbial community, marine sediment enrichment with yeast extract and sulfate) of the same substance?
**A.** The IC50 was 800 µM.

**Q.** And the “growth of tn5::dde_2102 strain relative to wild-type G20, in words” value [11]?
**A.** The value was “sensitive”.

Where two headings read alike, the source gives them in different places.
